Data: US11331371B2, “Labyrinthopeptins as anti-viral agents” (Helmholtz-Zentrum Für Infektionsforschung GMBH, priority 2015, dated 2022)
Like-named read-outs stand apart in the source and are kept apart here.

How the values were obtained:
[1] = test system: Dengue Virus (Type 2 New Guinea C); assay: Dose response assay, DENV infection of Huh-7.5 cells, DENV envelope protein immunostaining, high-content imaging; format: cell-based; details: MOI 0.5, 48 h post-infection, read-out: IC50 of the anti-viral activity, DENV
Experimental: Huh-7.5 cells (3×10^4 per well) were seeded in black 96-well optical-bottom plates [Nunc] in full growth medium one day prior to infection. After washing with PBS, 40 μl assay medium (5% FBS) was added to cells containing either Laby A1, Laby A2 (final conc. 50, 16.7, 5.56, 1.85, 0.62, 0.21, 0.069 μg/ml) or a combination of Laby A1 and Laby A2 (25, 8.3, 2.8, 0.93, 0.31, 0.10, 0.034 μg/ml each). Treatments were run in doublets. PBS served as a control. After 30 min of incubation, cells were infected with Dengue Virus (Type 2 New Guinea C) at an MOI of 0.5 to give a final volume of 60 μl/well. […]
Fluorescent cells were analyzed by high-content imaging using the automated microscope ImageXpressMicro [Molecular Devices] and the MetaXpress-software. […] The number of total cells/site was determined by automatically counting DAPI-stained nuclei. The percentage of DENV-positive cells was calculated by automatically evaluating the number of Alexa Fluor 488-positive cells in relation to the total cell number. […] IC50-values were calculated by non-linear regression.
To determine a potential synergistic effect of Labyrinthopeptins A1 and A2 on DENV-infection a dose response assay was performed. […] The number of total cells as well as the percentage of Alexa Fluor 488-positive cells (=DENV positive cells) was determined by high-content fluorescence imaging.

[2] = Cell-based HTS system for cytotoxic concentration (CC50), FF-luc HEp-2 cells; details: 72 h, concentrations up to 100 μM, read-out: half maximal cytotoxic concentration (CC50)
Experimental: Cells (e.g. HEp-2 cells), which stably express the reporter gene of a firefly luciferase (FF-luc), may be seeded in a 96-well plate in media, e.g. in Gibco® Advanced MEM. After 72 h of incubation at 37° C. in the presence of increasing concentrations of the labyrinthopeptin, labyrinthopeptin derivative or combination to be tested (e.g. up to 100 μM), the cells may be lysed and the extinction of the FF-luc (RLU) may be measured. Therefore, a plate luminometer (Berthold) may be used. The number of surviving cells is […] proportional to residual luciferase expression.
A cell-based screening system was used to determine the cytotoxic concentration (CC50) of labyrinthopeptin A1 and A2.
1×10^4 HEp-2 cells, which are stably expressing the reporter gene of a firefly luciferase (FF-luc), were seeded in a 96-well plate in 200 μl appropriate media. After 72 h of incubation at 37° C. in the presence of increasing concentrations of labyrinthopeptin A1 or A2 up to 100 μM, the cells have been lysed in 35 μl lysis buffer and the extinction of the FF-luc (RLU) was measured using a plate luminometer (Berthold). The number of surviving cells is […] proportional to residual luciferase expression.

wild-type RSV (hRSV) = details: read-out: IC50 of the anti-viral activity, RSV; intracellular RSV-P staining, HEp 2 cells, MOI 1, 18 h post infection
[3] = test system: human respiratory syncytial virus (RSV); details: read-out: IC50, inhibition of RSV induced cell death; FF-luc HEp-2 cells, MOI 3, 72 h, indirect assay
KSHV = details: read-out: IC50 of the anti-viral activity, KSHV; HEK 293 cells, MOI 0.01, 48 h
[4] = test system: GFP-expressing CMV (HCMV) strain pHG-1 (HT8-GFP, AD169-based); details: read-out: IC50 of the anti-viral activity, CMV, NHDF cells, MOI 0.5, GFP at day 4 post infection
ZIKV (Strain MR766-NIID) = details: read-out: IC50 of the anti-viral activity, ZIKV; Huh-7.5 cells, MOI 0.5, 48 h, genome copy equivalents
HCV JcR2a = details: Huh 7.5 Fluc cells, Renilla luciferase after 48 h
Huh 7.5 Fluc cells = assay: Cell viability (firefly luciferase) in the HCV assay

CC(C)C[C@@H]1NC(=O)[C@]23CSC[C@H](NC(=O)[C@H](C)NC(=O)[C@H](Cc4ccccc4)NC1=O)C(=O)N[C@H](C(=O)O)CSSC[C@H](NC(=O)[C@@H]1CSC[C@]4(C[C@H](N)C(=O)N[C@@H](CC(=O)O)C(=O)N[C@@H](Cc5c[nH]c6ccccc56)C(=O)N4)C(=O)N[C@@H](CC(C)C)C(=O)N[C@@H](Cc4c[nH]c5ccccc45)C(=O)N[C@@H](CCC(=O)O)C(=O)N1)C(=O)N[C@@H](C2)C(=O)N[C@@H]([C@@H](C)O)C(=O)NCC(=O)N3 [LabyA2, Labyrinthopeptin A2]
IC50 [1]: 8 µM
CC50 [2]: > 100 µM
IC50 (wild-type RSV (hRSV)): 4.97 µM
IC50 [3]: 47.9 µM
IC50 (KSHV): 15 µM
IC50 [4]: 5.4 µM
IC50 ([4]; listed as Labyrinthopeptin A2): ~5.4 µM
IC50 (ZIKV (Strain MR766-NIID)): 2.81 µM
IC50 (HCV JcR2a; read-out: IC50 of the anti-viral activity, HCV (virus entry), 4 h inoculation): 1.73 µM
IC90 (HCV JcR2a; read-out: IC90, inhibition of HCV virus entry): 24.9 µM
cytotoxicity at the tested concentrations in the HCV assay (Huh 7.5 Fluc cells): No cytotoxicity was observed
